In publication PMC5650409 (Oncotarget, 2017):

Key:
[1] = tested on: SK-BR-3 tumor-bearing mice; conditions: mouse, in vivo
Method: (§1) All animal experiments were performed in adherence with the Peking Union Medical College Hospital (PUMCH) guidelines for the use of laboratory animals and were approved by PUMCH Clinical Center Animal Care and Use Committee. The pancreatic cancer tumor-bearing models were generated by subcutaneous injection of 5 × 10^6 human T3M4 pancreatic cancer cells (kindly supplied by Prof. Taiping Zhang from the Department of General Surgery, Peking Union Medical College Hospital) and SK-BR-3 breast cancer cells (kindly supplied by Prof. Wei Ge from Department of Immunology, Institute of Basic Medical Sciences), into the right shoulder of female athymic nude mice (Laboratory Animal Center of PUMCH). Tumor sizes were monitored with a vernier caliper. When the tumor reached approximately 3-5 mm in diameter, T3M4 tumor-bearing mice were intramuscularly injected with 0.2 mL turpentine into the left hind leg muscle. After 72 h, those tumor-bearing mice with a visible mass in left thigh muscle, were selected and used as models with aseptic inflammation.
(§2) In vivo PET imaging was performed using a small-animal PET scanner Inveon (Siemens Medical systems, USA). […] Mice were anesthetized with isoflurane and placed on a heated pad (to provide the animal with warmth throughout the scanning). PET images were acquired at 30, 60, 90 and 120 min post-injection. After the acquisition, region of interests (ROIs), including tumor, muscle, brain and kidney were drawn over major organs on decay-corrected whole-body coronal images using Inveon Research Workplace 4.1 software. Radioactivity concentration of organs was obtained from the mean pixel values within the multiple ROI volume, and converted into MBq/mL using a conversion factor. Assuming the density of tissue was 1 g/cm^3, the ROIs were converted to MBq/g and then divided by the administered activity, to obtain an imaging ROI-derived %ID/g.

T3M4 tumor-bearing mice = conditions: mouse, in vivo
Method: as §1, §2

Substance: ^18F-FDG [reference compound]
- radioactivity uptake in SK-BR-3 tumor [1]: high
- uptake ratio of tumor-to-blood [1]: 0.54 ± 0.03
- uptake ratio of tumor-to-liver [1]: 2.97 ± 0.06
- uptake ratio of tumor-to-muscle [1]: 2.81 ± 0.06
- ratio of tumor-to-blood (T3M4 tumor-bearing mice): 0.28 ± 0.02
- ratio of tumor-to-inflammation (T3M4 tumor-bearing mice): 0.85 ± 0.09
- ratio of tumor-to-liver (T3M4 tumor-bearing mice): 2.83 ± 0.10
- ratio of tumor-to-muscle (T3M4 tumor-bearing mice): 2.95 ± 0.15
